Laboratory results: paper PMC8624105 (Viruses, 2021)

Columns and labels:
Assay in all cases: holdup assay
Type in all cases: binding, human
SNX27 = test system: SNX27
NHERF PDZ2 = details: PDZ about 4 μM; two independent experiments
MYO18A PDZ1 = details: PDZ about 4 μM; two independent experiments
MAGI1 PDZ4 = details: PDZ about 4 μM; two independent experiments
MAGI1 PDZ6 = details: PDZ about 4 μM; sd not given
MAGI3 PDZ3 = details: PDZ about 4 μM; two independent experiments
SCRIB PDZ1 = details: PDZ about 4 μM; sd not given
InaDl PDZ5 = details: PDZ about 4 μM; two independent experiments
TJP1 PDZ2 = details: PDZ about 4 μM; two independent experiments
LNX2 PDZ4 = details: PDZ about 4 μM; two independent experiments
AHNAK1 PDZ1 = details: PDZ about 4 μM; sd not given
CNKSR3 PDZ1 = details: PDZ about 4 μM; sd not given
SIPA1L1 PDZ1 = details: PDZ about 4 μM; two independent experiments
RADIL PDZ1 = details: PDZ about 4 μM; two independent experiments
GRIP2 PDZ5 = details: PDZ about 4 μM; two independent experiments
GRIP1 PDZ3 = details: PDZ about 4 μM; sd not given
MPDZ PDZ4 = details: PDZ about 4 μM; two independent experiments
SNTB1 PDZ1 = details: PDZ about 4 μM; two independent experiments
PARD3B PDZ3 = details: PDZ about 4 μM; two independent experiments
RGS12 PDZ1 = details: PDZ about 4 μM; two independent experiments
PDZRN4 PDZ2 = details: PDZ about 4 μM; two independent experiments
MAGI1 PDZ1 = details: PDZ about 4 μM; two independent experiments
MPP5 PDZ1 = details: PDZ about 4 μM; two independent experiments
SNTA1 PDZ1 = details: PDZ about 4 μM; two independent experiments
PICK1 PDZ1 = details: PDZ about 4 μM; sd not given
MAGI3 PDZ6 = details: PDZ about 4 μM; two independent experiments
APBA1 PDZ2 = details: PDZ about 4 μM; sd not given
MAGI1 PDZ3 = details: PDZ about 4 μM; two independent experiments
MAGI2 PDZ4 = details: PDZ about 4 μM; two independent experiments
SHROOM3 PDZ1 = details: PDZ about 4 μM; two independent experiments
PREX2 PDZ2 = details: PDZ about 4 μM; two independent experiments
MPDZ PDZ2 = details: PDZ about 4 μM; two independent experiments
PDZD4 PDZ1 = details: PDZ about 4 μM; two independent experiments
PARD6G PDZ1 = details: PDZ about 4 μM; two independent experiments
MPDZ PDZ8 = details: PDZ about 4 μM; two independent experiments
MAGIX PDZ1 = details: PDZ about 4 μM; two independent experiments
DLG1 PDZ2 = details: PDZ about 4 μM; two independent experiments
LNX1 PDZ2 = details: PDZ about 4 μM; sd not given
INTU PDZ1 = details: PDZ about 4 μM; two independent experiments
APBA1 PDZ1 = details: PDZ about 4 μM; sd not given
TJP3 PDZ2 = details: PDZ about 4 μM; two independent experiments
IL16 PDZ4 = details: PDZ about 4 μM; two independent experiments
TX1B3 PDZ1 = details: PDZ about 4 μM; two independent experiments
PARD6B PDZ1 = details: PDZ about 4 μM; two independent experiments
TJP2 PDZ3 = details: PDZ about 4 μM; sd not given
NHERF4 PDZ4 = details: PDZ about 4 μM; two independent experiments
TJP2 PDZ2 = details: PDZ about 4 μM; two independent experiments
TIAM2 PDZ1 = details: PDZ about 4 μM; two independent experiments
DLG1 PDZ1 = details: PDZ about 4 μM; two independent experiments
CNKSR1 PDZ1 = details: PDZ about 4 μM; two independent experiments
DVL2 PDZ1 = details: PDZ about 4 μM; two independent experiments

Q: Which “BI (binding intensity)” value (SNX27; PDZ about 4 μM, two independent experiments) does the source give for “Biotin-(PEG3)-GFQNTDDVQTSF [ACE2 PBM peptide]” here?
A: Its value is 0.87.

Q: What about the Kd estimated (SNX27; converted from BI, PDZ typically 4 μM, immobilized peptide 21 μM) of the same substance?
A: The Kd estimated was “best binder”.

Q: And the “BI (binding intensity)” value (NHERF PDZ2)?
A: Its value is 0.11.

Q: And the “BI (binding intensity)” value (MYO18A PDZ1)?
A: Its value is 0.06.

Q: And the “BI (binding intensity)” value (MAGI1 PDZ4)?
A: The value was 0.06.

Q: And the “BI (binding intensity)” value (MAGI1 PDZ6)?
A: Its value is 0.04.

Q: And the “BI (binding intensity)” value (MAGI3 PDZ3)?
A: Its value is 0.03.

Q: And the “BI (binding intensity)” value (SCRIB PDZ1)?
A: Its value is 0.02.

Q: What about the “BI (binding intensity)” value (InaDl PDZ5) of the same substance?
A: The value was 0.02.

Q: What about the “BI (binding intensity)” value (TJP1 PDZ2) of the same substance?
A: Its value is 0.01.

Q: And the “BI (binding intensity)” value (LNX2 PDZ4)?
A: The value was 0.01.

Q: What about the “BI (binding intensity)” value (AHNAK1 PDZ1) of the same substance?
A: Its value is 0.00.

Q: What about the “BI (binding intensity)” value (CNKSR3 PDZ1) of the same substance?
A: Its value is 0.00.

Q: What about the “BI (binding intensity)” value (SIPA1L1 PDZ1) of the same substance?
A: The value was 0.00.

Q: What about the “BI (binding intensity)” value (RADIL PDZ1) of the same substance?
A: The value was 0.00.

Q: And the “BI (binding intensity)” value (GRIP2 PDZ5)?
A: Its value is 0.00.

Q: What about the “BI (binding intensity)” value (GRIP1 PDZ3) of the same substance?
A: The value was -0.01.

Q: And the “BI (binding intensity)” value (MPDZ PDZ4)?
A: The value was -0.01.

Q: And the “BI (binding intensity)” value (SNTB1 PDZ1)?
A: The value was -0.01.

Q: And the “BI (binding intensity)” value (PARD3B PDZ3)?
A: The value was -0.01.

Q: And the “BI (binding intensity)” value (RGS12 PDZ1)?
A: Its value is -0.02.

Q: And the “BI (binding intensity)” value (PDZRN4 PDZ2)?
A: The value was -0.02.

Q: What about the “BI (binding intensity)” value (MAGI1 PDZ1) of the same substance?
A: Its value is -0.03.

Q: What about the “BI (binding intensity)” value (MPP5 PDZ1) of the same substance?
A: Its value is -0.03.

Q: What about the “BI (binding intensity)” value (SNTA1 PDZ1) of the same substance?
A: Its value is -0.03.

Q: What about the “BI (binding intensity)” value (PICK1 PDZ1) of the same substance?
A: Its value is -0.03.

Q: What about the “BI (binding intensity)” value (MAGI3 PDZ6) of the same substance?
A: The value was -0.03.

Q: What about the “BI (binding intensity)” value (APBA1 PDZ2) of the same substance?
A: Its value is -0.04.

Q: And the “BI (binding intensity)” value (MAGI1 PDZ3)?
A: Its value is -0.04.

Q: What about the “BI (binding intensity)” value (MAGI2 PDZ4) of the same substance?
A: Its value is -0.04.

Q: And the “BI (binding intensity)” value (SHROOM3 PDZ1)?
A: The value was -0.04.

Q: And the “BI (binding intensity)” value (PREX2 PDZ2)?
A: Its value is -0.05.

Q: And the “BI (binding intensity)” value (MPDZ PDZ2)?
A: Its value is -0.05.

Q: What about the “BI (binding intensity)” value (PDZD4 PDZ1) of the same substance?
A: The value was -0.05.

Q: What about the “BI (binding intensity)” value (PARD6G PDZ1) of the same substance?
A: The value was -0.05.

Q: What about the “BI (binding intensity)” value (MPDZ PDZ8) of the same substance?
A: Its value is -0.06.

Q: What about the “BI (binding intensity)” value (MAGIX PDZ1) of the same substance?
A: The value was -0.06.

Q: What about the “BI (binding intensity)” value (DLG1 PDZ2) of the same substance?
A: The value was -0.07.

Q: What about the “BI (binding intensity)” value (LNX1 PDZ2) of the same substance?
A: Its value is -0.07.

Q: And the “BI (binding intensity)” value (INTU PDZ1)?
A: Its value is -0.07.

Q: What about the “BI (binding intensity)” value (APBA1 PDZ1) of the same substance?
A: The value was -0.08.

Q: And the “BI (binding intensity)” value (TJP3 PDZ2)?
A: The value was -0.08.

Q: What about the “BI (binding intensity)” value (IL16 PDZ4) of the same substance?
A: Its value is -0.09.

Q: And the “BI (binding intensity)” value (TX1B3 PDZ1)?
A: The value was -0.09.

Q: What about the “BI (binding intensity)” value (PARD6B PDZ1) of the same substance?
A: The value was -0.10.

Q: And the “BI (binding intensity)” value (TJP2 PDZ3)?
A: Its value is -0.10.

Q: What about the “BI (binding intensity)” value (NHERF4 PDZ4) of the same substance?
A: The value was -0.11.

Q: And the “BI (binding intensity)” value (TJP2 PDZ2)?
A: Its value is -0.12.

Q: And the “BI (binding intensity)” value (TIAM2 PDZ1)?
A: The value was -0.12.

Q: And the “BI (binding intensity)” value (DLG1 PDZ1)?
A: The value was -0.14.

Q: What about the “BI (binding intensity)” value (CNKSR1 PDZ1) of the same substance?
A: Its value is -0.31.

Q: What about the “BI (binding intensity)” value (DVL2 PDZ1) of the same substance?
A: Its value is -0.38.
